In ChEMBL document CHEMBL4354843, “Structure-Based Design of a Potent and Selective Covalent Inhibitor for SRC Kinase That Targets a P-Loop Cysteine” (J Med Chem, 2020) one finds IC50 data, which are given here for 1 compound.

This test deals with BaF3. The test is described as follows: cells. To be noted: Mus musculus, BaF3, 72 h.

On to `C=CC(=O)Nc1ccccc1Nc1nc(Nc2ccc(N3CCN(C)CC3)cc2)ncc1C(=O)Nc1c(C)cccc1Cl`, for which the half-maximal inhibitory concentration (IC50) is over 2930 nM.

By IC50 is commonly meant the concentration needed to halve the response being measured. A lower IC50 goes with higher potency.
